Experimental data reported in patent US20100047159A1, “METHOD FOR RELEASING HYDROGEN FROM AMMONIA BORANE” (Purdue Research Foundation, priority 2008, published 2010).
Read-outs that look alike come from different tables or passages of the source.

Key:
[1] = room temperature (22° C.), stated as background; cited from earlier work

For Ammonia borane [AB], which “solubility of AB in water” value [1] is on record?
Its value is “about 26 wt %”.

And the “AB solubility in water” value (22° C. (room temperature))?
Its value is 27.5 wt %.

And the “AB solubility in water” value (70° C.)?
Its value is roughly 50 wt %.
